Values quoted from earlier work in patent publication US20160367500A1 (FERTILIFY INC., priority 2013, published 2016).

Settings: Health Canada suggested daily intake levels for females aged 19-50

## vitamin E
  Tolerable upper intake level: 1,000 mg
